Measured values taken from PubChem BioAssay (NCI).
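Growth conditions: 96-well plates. Treatment: test compound, 48 hours, 5 concentrations. Analysis: linear interpolation between bracketing concentrations; unreached endpoints set to highest concentration. GI50 marks 50% less growth. At the TGI there is no net growth.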

Key:
Assay in all cases: inhibition of tumour cell growth, NCI panel, 48 h
786-0 renal = tested on: 786-0 renal
A498 renal = tested on: A498 renal
A549 NSCLC = tested on: A549 NSCLC
ACHN renal = tested on: ACHN renal
BT-549 breast = tested on: BT-549 breast
CAKI-1 renal = tested on: CAKI-1 renal
CCRF-CEM leukemia = tested on: CCRF-CEM leukemia
COLO 205 colon = tested on: COLO 205 colon
DU-145 prostate = tested on: DU-145 prostate
EKVX NSCLC = tested on: EKVX NSCLC
HCC-2998 colon = tested on: HCC-2998 colon
HCT-116 colon = tested on: HCT-116 colon
HCT-15 colon = tested on: HCT-15 colon
HL-60(TB) leukemia = tested on: HL-60(TB) leukemia
HOP-62 NSCLC = tested on: HOP-62 NSCLC
HOP-92 NSCLC = tested on: HOP-92 NSCLC
HS 578T breast = tested on: HS 578T breast
HT29 colon = tested on: HT29 colon
IGROV1 ovarian = tested on: IGROV1 ovarian
K-562 leukemia = tested on: K-562 leukemia
KM12 colon = tested on: KM12 colon
LOX IMVI melanoma = tested on: LOX IMVI melanoma
M14 melanoma = tested on: M14 melanoma
MALME-3M melanoma = tested on: MALME-3M melanoma
MCF7 breast = tested on: MCF7 breast
MDA-MB-231 breast = tested on: MDA-MB-231 breast
MDA-MB-435 = tested on: MDA-MB-435
MDA-N = tested on: MDA-N
MOLT-4 leukemia = tested on: MOLT-4 leukemia
NCI-H226 lung = tested on: NCI-H226 lung
NCI-H23 lung = tested on: NCI-H23 lung
NCI-H322M lung = tested on: NCI-H322M lung
NCI-H460 lung = tested on: NCI-H460 lung
NCI-H522 lung = tested on: NCI-H522 lung
NCI/ADR-RES ovarian = tested on: NCI/ADR-RES ovarian
OVCAR-3 ovarian = tested on: OVCAR-3 ovarian
OVCAR-4 ovarian = tested on: OVCAR-4 ovarian
OVCAR-5 ovarian = tested on: OVCAR-5 ovarian
OVCAR-8 ovarian = tested on: OVCAR-8 ovarian
PC-3 prostate = tested on: PC-3 prostate
RPMI-8226 leukemia = tested on: RPMI-8226 leukemia
RXF 393 renal = tested on: RXF 393 renal
SF-268 CNS = tested on: SF-268 CNS
SF-295 CNS = tested on: SF-295 CNS
SK-MEL-2 melanoma = tested on: SK-MEL-2 melanoma
SK-MEL-28 melanoma = tested on: SK-MEL-28 melanoma
SK-MEL-5 melanoma = tested on: SK-MEL-5 melanoma
SK-OV-3 ovarian = tested on: SK-OV-3 ovarian
SN12C renal = tested on: SN12C renal
SNB-19 CNS = tested on: SNB-19 CNS
SNB-75 CNS = tested on: SNB-75 CNS
SR leukemia = tested on: SR leukemia
SW-620 colon = tested on: SW-620 colon
T-47D breast = tested on: T-47D breast
TK-10 renal = tested on: TK-10 renal
U251 CNS = tested on: U251 CNS
UACC-257 melanoma = tested on: UACC-257 melanoma
UACC-62 melanoma = tested on: UACC-62 melanoma
UO-31 renal = tested on: UO-31 renal

O=C(OCCC(F)([N+](=O)[O-])[N+](=O)[O-])OCC(F)([N+](=O)[O-])[N+](=O)[O-]
GI50 (786-0 renal): 0.51 µM
TGI (786-0 renal): 1.76 µM
GI50 (A498 renal): 13 µM
TGI (A498 renal): 31.4 µM
GI50 (A549 NSCLC): 8.6 µM
TGI (A549 NSCLC): 36.2 µM
GI50 (ACHN renal): 1.56 µM
TGI (ACHN renal): 3.96 µM
GI50 (BT-549 breast): 2.03 µM
TGI (BT-549 breast): 4.73 µM
GI50 (CAKI-1 renal): 1.74 µM
TGI (CAKI-1 renal): 3.29 µM
GI50 (CCRF-CEM leukemia): 0.68 µM
TGI (CCRF-CEM leukemia): > 100 µM
GI50 (COLO 205 colon): 1.59 µM
TGI (COLO 205 colon): 3.71 µM
GI50 (DU-145 prostate): 1.72 µM
TGI (DU-145 prostate): 3.34 µM
GI50 (EKVX NSCLC): 2.12 µM
TGI (EKVX NSCLC): 5.02 µM
GI50 (HCC-2998 colon): 1.54 µM
TGI (HCC-2998 colon): 3.72 µM
GI50 (HCT-116 colon): 1.3 µM
TGI (HCT-116 colon): 2.72 µM
GI50 (HCT-15 colon): 1.09 µM
TGI (HCT-15 colon): 14.3 µM
GI50 (HL-60(TB) leukemia): 0.387 µM
TGI (HL-60(TB) leukemia): 9.99 µM
GI50 (HOP-62 NSCLC): 2.02 µM
TGI (HOP-62 NSCLC): 4.32 µM
GI50 (HOP-92 NSCLC): 1.86 µM
TGI (HOP-92 NSCLC): 4.61 µM
GI50 (HS 578T breast): 3.22 µM
TGI (HS 578T breast): 23.4 µM
GI50 (HT29 colon): 2.34 µM
TGI (HT29 colon): > 100 µM
GI50 (IGROV1 ovarian): 0.917 µM
TGI (IGROV1 ovarian): 2.61 µM
GI50 (K-562 leukemia): 0.32 µM
TGI (K-562 leukemia): 13.9 µM
GI50 (KM12 colon): 1.15 µM
TGI (KM12 colon): 2.49 µM
GI50 (LOX IMVI melanoma): 1.78 µM
TGI (LOX IMVI melanoma): 16.1 µM
GI50 (M14 melanoma): 1.78 µM
TGI (M14 melanoma): 4.02 µM
GI50 (MALME-3M melanoma): 1.74 µM
TGI (MALME-3M melanoma): 3.82 µM
GI50 (MCF7 breast): 1.83 µM
TGI (MCF7 breast): 15.6 µM
GI50 (MDA-MB-231 breast): 1.85 µM
TGI (MDA-MB-231 breast): 3.78 µM
GI50 (MDA-MB-435): 1.47 µM
TGI (MDA-MB-435): 3.76 µM
GI50 (MDA-N): 1.17 µM
TGI (MDA-N): 2.61 µM
GI50 (MOLT-4 leukemia): 1.64 µM
TGI (MOLT-4 leukemia): 6.04 µM
GI50 (NCI-H226 lung): 9.1 µM
TGI (NCI-H226 lung): 38.8 µM
GI50 (NCI-H23 lung): 2.16 µM
TGI (NCI-H23 lung): 14.7 µM
GI50 (NCI-H322M lung): 13.8 µM
TGI (NCI-H322M lung): 32.6 µM
GI50 (NCI-H460 lung): 2.99 µM
TGI (NCI-H460 lung): 12.1 µM
GI50 (NCI-H522 lung): 0.563 µM
TGI (NCI-H522 lung): 2.26 µM
GI50 (NCI/ADR-RES ovarian): 2.13 µM
TGI (NCI/ADR-RES ovarian): 21 µM
GI50 (OVCAR-3 ovarian): 1.58 µM
TGI (OVCAR-3 ovarian): 3.44 µM
GI50 (OVCAR-4 ovarian): 2.65 µM
TGI (OVCAR-4 ovarian): 19.5 µM
GI50 (OVCAR-5 ovarian): 2.9 µM
TGI (OVCAR-5 ovarian): 7.66 µM
GI50 (OVCAR-8 ovarian): 1.74 µM
TGI (OVCAR-8 ovarian): 17.1 µM
GI50 (PC-3 prostate): 1.6 µM
TGI (PC-3 prostate): 3.26 µM
GI50 (RPMI-8226 leukemia): 0.526 µM
TGI (RPMI-8226 leukemia): 3.13 µM
GI50 (RXF 393 renal): 10.1 µM
TGI (RXF 393 renal): 23.6 µM
GI50 (SF-268 CNS): 2.44 µM
TGI (SF-268 CNS): 19.4 µM
GI50 (SF-295 CNS): 8.26 µM
TGI (SF-295 CNS): 23.9 µM
GI50 (SK-MEL-2 melanoma): 2 µM
TGI (SK-MEL-2 melanoma): 5.03 µM
GI50 (SK-MEL-28 melanoma): 2.24 µM
TGI (SK-MEL-28 melanoma): 4.22 µM
GI50 (SK-MEL-5 melanoma): 1.64 µM
TGI (SK-MEL-5 melanoma): 4.09 µM
GI50 (SK-OV-3 ovarian): 7.54 µM
TGI (SK-OV-3 ovarian): 22.5 µM
GI50 (SN12C renal): 1.71 µM
TGI (SN12C renal): 3.33 µM
GI50 (SNB-19 CNS): 5.63 µM
TGI (SNB-19 CNS): 18.6 µM
GI50 (SNB-75 CNS): 6.71 µM
TGI (SNB-75 CNS): 22.8 µM
GI50 (SR leukemia): 0.369 µM
TGI (SR leukemia): 2.58 µM
GI50 (SW-620 colon): 0.949 µM
TGI (SW-620 colon): 2.35 µM
GI50 (T-47D breast): 1.98 µM
TGI (T-47D breast): 5.67 µM
GI50 (TK-10 renal): 2.23 µM
TGI (TK-10 renal): 16.4 µM
GI50 (U251 CNS): 2.06 µM
TGI (U251 CNS): 4.61 µM
GI50 (UACC-257 melanoma): 2.34 µM
TGI (UACC-257 melanoma): 5.78 µM
GI50 (UACC-62 melanoma): 1.87 µM
TGI (UACC-62 melanoma): 4.19 µM
GI50 (UO-31 renal): 1.09 µM
TGI (UO-31 renal): 2.61 µM
